From US6506766B1 (Abbott Laboratories, priority 1998, dated 2003)

Columns and labels:
[1] = target: T1, human progesterone receptor-A [PRA] isoform (Homo sapiens, UniProt P06401); assay: Radioligand binding with human progesterone receptor cytosol ([3H]-progesterone competition); conditions: PRA cytosol expressed in insect SF21 cells, [3H]Prog ~0.8 nM, 4° C. overnight; Ki by Cheng-Prusoff, KL ~4.5 nM; read-out: Ki (nM) PR
T1 construct: host or cells: insect SF21 cells (baculovirus)
T1 sequence (P06401 1-769 isoform P06401-2): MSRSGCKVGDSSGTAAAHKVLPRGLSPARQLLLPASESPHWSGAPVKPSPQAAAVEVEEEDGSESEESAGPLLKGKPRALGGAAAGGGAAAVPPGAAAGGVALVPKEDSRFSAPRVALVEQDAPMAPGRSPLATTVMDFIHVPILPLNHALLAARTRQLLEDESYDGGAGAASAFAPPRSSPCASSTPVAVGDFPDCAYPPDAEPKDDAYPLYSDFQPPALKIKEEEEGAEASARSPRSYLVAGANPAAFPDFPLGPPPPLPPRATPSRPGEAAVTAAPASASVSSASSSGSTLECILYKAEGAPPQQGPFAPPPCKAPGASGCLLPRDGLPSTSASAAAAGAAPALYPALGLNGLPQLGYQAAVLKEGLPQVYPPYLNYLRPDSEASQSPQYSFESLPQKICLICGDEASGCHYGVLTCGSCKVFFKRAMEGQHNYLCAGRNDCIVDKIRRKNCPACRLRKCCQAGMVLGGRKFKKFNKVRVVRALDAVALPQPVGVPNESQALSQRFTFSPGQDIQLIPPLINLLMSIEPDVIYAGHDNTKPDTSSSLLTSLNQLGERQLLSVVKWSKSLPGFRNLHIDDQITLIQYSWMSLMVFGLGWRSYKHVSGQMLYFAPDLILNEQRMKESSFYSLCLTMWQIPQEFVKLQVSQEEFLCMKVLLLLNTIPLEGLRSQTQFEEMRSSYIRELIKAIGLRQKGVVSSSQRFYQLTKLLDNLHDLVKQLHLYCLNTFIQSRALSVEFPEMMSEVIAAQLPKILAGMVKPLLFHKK

[2] = target: T2, human glucocorticoid receptor-α [GRX] isoform (Homo sapiens, UniProt P04150); assay: Radioligand binding with human glucocorticoid receptor cytosol ([3H]-dexamethasone competition); conditions: GRX cytosol expressed in insect SF21 cells, [3H]-Dex ~0.9 nM, 4° C. overnight; Ki by Cheng-Prusoff, KL ~1.5 nM; read-out: Ki (nM) GR
T2 construct: host or cells: insect SF21 cells (baculovirus)
T2 sequence (P04150 1-777): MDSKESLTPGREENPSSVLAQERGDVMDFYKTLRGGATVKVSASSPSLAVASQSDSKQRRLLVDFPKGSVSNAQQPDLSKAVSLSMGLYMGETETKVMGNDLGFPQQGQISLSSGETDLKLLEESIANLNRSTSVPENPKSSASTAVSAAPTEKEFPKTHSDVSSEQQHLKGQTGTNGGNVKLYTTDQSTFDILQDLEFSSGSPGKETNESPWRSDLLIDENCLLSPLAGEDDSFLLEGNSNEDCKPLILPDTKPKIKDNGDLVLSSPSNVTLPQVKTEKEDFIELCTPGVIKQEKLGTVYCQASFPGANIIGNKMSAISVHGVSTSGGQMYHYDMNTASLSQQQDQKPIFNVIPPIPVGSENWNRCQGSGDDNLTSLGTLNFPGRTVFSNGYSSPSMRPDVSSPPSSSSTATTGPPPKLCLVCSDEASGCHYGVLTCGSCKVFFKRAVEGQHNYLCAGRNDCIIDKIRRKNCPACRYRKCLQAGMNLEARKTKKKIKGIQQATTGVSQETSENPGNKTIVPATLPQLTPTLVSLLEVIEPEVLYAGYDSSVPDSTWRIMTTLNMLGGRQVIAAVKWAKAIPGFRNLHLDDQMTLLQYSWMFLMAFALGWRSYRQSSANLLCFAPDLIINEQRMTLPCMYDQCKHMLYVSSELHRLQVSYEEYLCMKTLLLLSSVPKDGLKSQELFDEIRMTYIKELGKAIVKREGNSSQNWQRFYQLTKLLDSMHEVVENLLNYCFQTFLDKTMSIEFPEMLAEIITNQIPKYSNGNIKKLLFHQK

Row | Ki [1] [nM] | Ki [2] [nM] | Substance
1 | ≥ 10000 | 33.7 | 2,5-Dihydro-10-methoxy-2,2-[spiro(hexyl)]-5-allyl-1H-[1]benzopyrano[3,4-f]quinoline [Example 360]
2 | ≥ 10000 | 93 | 10-Methoxy-5-(4,5-dimethyl-1,3-oxazol-2-yl)methyidene-2,5-dihydro-5-phenyl-2,2,4-trimethyl-1H-[1]benzopyrano[3,4-f]quinoline [Example 351]
3 | 21800 | 93.2 | rel-(5S)-9-Hydroxy-5-[(3S)-(1-hydroxymethyl)cyclohexen-3-yl]-10-methoxy-2,2,4-trimethyl-2,5-dihydro-1H-[1]benzopyrano[3,4-f]quinoline [Example 414]
4 | 2970 | 15 | 10-Methoxy-5-(1-butylidene)-2,5-dihydro-5-phenyl-2,2,4-trimethyl-1H-[1]benzopyrano[3,4-f]quinoline [Example 356]
5 | ≥ 10000 | 10.5 | 10-Methoxy-5-(5-methylisoxazol-3-yl)methyidene-2,5-dihydro-5-phenyl-2,2,4-trimethyl1H-[1]benzopyrano[3,4-f]quinoline [Example 349]
6 | 1500 | 32 | 10-Methoxy-5-(but-3-enylidene)-2,5-dihydro-5-phenyl-2,2,4-trimethyl-1H-[1]benzopyrano[3,4-f]quinoline [Example 354]
7 | ≥ 10000 | 20 | 10-Methoxy-5-(pyridin-2-yl)methyidene-2,5-dihydro-5-phenyl-2,2,4-trimethyl-1H-[1]benzopyrano[3,4-f]quinoline [Example 353]

Continued, substance first:

Row | Substance | Ki [1] [nM] | Ki [2] [nM]
8 | 2,5-Dihydro-10-methoxy-5-(3-(N-methyl-N-(N-methylcarbonyl)aminocarbonyloxy)phenyl)-2,2,4-trimethyl-1H-[1]benzopyrano[3,4-f]quinoline [Example 312] | ≥ 10000 | 8.4
9 | 2,5-Dihydro-10-methoxy-5-(3-(N-methyl-N-(N-methylcarbonyl)aminocarbonyloxy)phenyl)-2,2,4-trimethyl-1H-[1]benzopyrano[3,4-f]quinoline [Example 313] | ≥ 10000 | 6.4
10 | (−)(5S,3′R)-9-Hydroxy-5-[1-methyl-3-cyclohexenyl]-10-methoxy-2,2,4-trimethyl-2,5-dihydro-1H-[1]benzopyrano[3,4-f]quinoline [Example 241] | 61.1 | 0.69
11 | (+)(5R,3′R)-9-Hydroxy-5-[1-methyl-3-cyclohexenyl]-10-methoxy-2,2,4-trimethyl-2,5-dihydro-1H-[1]benzopyrano[3,4-f]quinoline [Example 239] | 240 | 16.8
12 | 2,5-Dihydro-10-methoxy-5-(3-butenyl)-2,2,4-trimethyl-1H-[1]benzopyrano[3,4-f]quinoline [Example 138] | 5600 | 2.2
13 | rel-(5S,3′R)-9-Hydroxy-10-methoxy-5-[1-hydroxymethyl-3-cyclohexenyl]2,2,4-trimethyl-2,5-dihydro-1H-[1]benzopyrano[3,4-f]quinoline [Example 220] | 527 | 0.66
14 | rel (5R,3′S) 2,5-Dihydro-10-methoxy-5-(1-methyl-3-cyclohexenyl)-2,2,4-trimethyl-1H-[1]benzopyrano[3,4-f]quinoline [Example 153] | ≥ 10000 | 1.9
15 | 2,5-Dihydro-10-methoxy-2,2,4-trimethyl-(-methylene 1H-[1]benzopyrano[3,4-f]quinoline5-propanol [Example 62] | ≥ 10000 | 12
16 | 2,5-Dihydro-10-methoxy-5-(3-hydroxy-3-propenyl)-2,2,4-trimethyl-1H-[1]benzopyrano[3,4-f]quinoline [Example 184] | ≥ 10000 | 40
17 | rel-(5S,3′R)-9-Hydroxy-5-[1-methoxymethyl-3-cyclohexenyl]-10-methoxy-2,2,4-trimethyl-2,5-dihydro-1H-[1]benzopyrano[3,4-f]quinoline [Example 375] | 1090 | 3
